Here are results for two molecules from US20030108957A1.

The assay deals with E. coli DnaK aa588-615 (E. coli). The assay is described as follows: fluorescence polarization, fluorescein-labeled pyrrhocoricin halves.

B1: fluorescein-labeled Pyrr10-20 (peptide)
peptide: PTPPRPIYNRN
modifications: not checked
B1 came in with a millipolarization unit increase going from 32 µM to 160 µM (millipolarization unit) of 30.

B2: fluorescein-labeled Pyrr1-9 (peptide)
peptide: VDKGSYLPR
modifications: not checked
In turn, B2 returned a millipolarization unit increase going from 32 µM to 160 µM (millipolarization unit) of 30.
